The entries are a selection whose mix differs from that of the whole data set. Some salts or complexes appear as unconnected parts, following the source record. Active and inactive are the calls of the source.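 The calls were made as follows: active = inhibition above the mean inhibition across every tested compound plus 3 SD (cut at about 22% in these data); inactive = the rest.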

Sequences of proteins named here, by UniProt entry; tags and fusion partners are left off.
UniProt Q00G26, whole entry, looked up: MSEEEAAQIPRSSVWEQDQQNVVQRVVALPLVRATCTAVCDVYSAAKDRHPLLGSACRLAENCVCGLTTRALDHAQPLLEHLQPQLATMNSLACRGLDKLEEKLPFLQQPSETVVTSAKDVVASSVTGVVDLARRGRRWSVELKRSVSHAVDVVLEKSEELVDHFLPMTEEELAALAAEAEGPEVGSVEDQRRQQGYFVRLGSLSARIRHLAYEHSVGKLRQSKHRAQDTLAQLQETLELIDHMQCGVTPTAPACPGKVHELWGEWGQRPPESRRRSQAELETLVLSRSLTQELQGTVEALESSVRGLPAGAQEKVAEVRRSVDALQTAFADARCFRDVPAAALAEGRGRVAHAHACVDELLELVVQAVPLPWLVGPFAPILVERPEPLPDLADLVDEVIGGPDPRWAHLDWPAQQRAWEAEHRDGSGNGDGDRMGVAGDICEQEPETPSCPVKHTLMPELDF
UniProt Q8WTS1, whole entry, looked up: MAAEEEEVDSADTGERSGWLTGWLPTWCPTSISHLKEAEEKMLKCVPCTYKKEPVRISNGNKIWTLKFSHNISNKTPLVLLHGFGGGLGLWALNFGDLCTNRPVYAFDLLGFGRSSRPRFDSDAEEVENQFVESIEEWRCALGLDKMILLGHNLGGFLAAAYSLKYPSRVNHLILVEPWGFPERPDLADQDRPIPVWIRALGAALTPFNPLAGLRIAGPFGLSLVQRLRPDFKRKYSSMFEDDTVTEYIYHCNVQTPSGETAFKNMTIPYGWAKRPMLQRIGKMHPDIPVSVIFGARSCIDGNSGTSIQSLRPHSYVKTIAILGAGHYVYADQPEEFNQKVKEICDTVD

The test has as its target Perilipin-5 (Homo sapiens) + 1-acylglycerol-3-phosphate O-acyltransferase ABHD5 (Homo sapiens) (UniProt Q00G26+Q8WTS1). Description: ABHD5-PLIN5 interaction inhibitors, primary screen, cell lysate, split luciferase complementation, luminescence (AID 602281).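 Also: 0% = DMSO only wells and the 100% control is not disclosed.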 As to conditions: Split G. princeps luciferase complementation, 4 h, at 4 µM, stronger effect = higher value.
As usually defined, the inhibition is the change of the read-out against control, counted positive when it falls. Consider `CP(=O)(Nc1ccc(SC(F)(F)F)cc1)Oc1ccccc1` (configuration not stated), for which the inhibition is inactive: 2.05%.

For `CCCOc1ccc(NP(C)(=O)Oc2ccc(Cl)cc2)cc1` (configuration not stated), the inhibition is inactive: 0.65%.

For `COc1ccccc1OP(C)(=O)Nc1c(C)cccc1C` (configuration not stated), the inhibition is inactive: -2.6%.

`CN1CCCCC1COC(=O)C1(O)c2ccccc2CCc2ccccc21` (configuration not stated): the inhibition is inactive: 13.2%.

In the case of `O=[N+]([O-])c1cc([N+](=O)[O-])c(Nc2nnnn2CCO)c([N+](=O)[O-])c1`, the inhibition was inactive: 11.1%.

Regarding `CC1=C2N=C(C=C3N=C(C(C)=C4[N-][C@@](C)([C@@H]5N=C1[C@](C)(CCC(=O)NC[C@@H](C)OP(=O)([O-])O[C@H]1[C@@H](O)[C@@H](n6cnc7cc(C)c(C)cc76)O[C@@H]1CO)[C@H]5CC(N)=O)[C@@](C)(CC(N)=O)[C@@H]4CCC(N)=O)[C@@](C)(CC(N)=O)[C@@H]3CCC(N)=O)C(C)(C)[C@@H]2CCC(N)=O.[C-]#N.[Co+3]`, the inhibition is inactive: -7.77%.

In the case of `CCOC(=O)C(CC)C1=NC(C)(C)Cc2ccccc21.O=[N+]([O-])c1cc([N+](=O)[O-])c(O)c([N+](=O)[O-])c1` (configuration not stated), the inhibition is inactive: -5.16%.

`Cc1nc2ccc3ccccc3c2s1.O=[N+]([O-])c1cc([N+](=O)[O-])c(O)c([N+](=O)[O-])c1`: the inhibition was inactive: 6.6%.

`O=[N+]([O-])c1cc([N+](=O)[O-])c(-c2cnn(-c3ccccc3)c2)c([N+](=O)[O-])c1`: the inhibition was inactive: -4.02%.

On to `CN(Cc1cccnc1)C(=O)COc1ccc(Cl)c(Cl)c1.O=[N+]([O-])c1cc([N+](=O)[O-])c(O)c([N+](=O)[O-])c1`, for which the inhibition was inactive: 15.3%.

On to `O=[N+]([O-])c1cc([N+](=O)[O-])c(-n2nnc3ccccc32)c([N+](=O)[O-])c1`, for which the inhibition is inactive: 0.17%.

`Cc1ccc(C)c(NP(C)(=O)Oc2ccccc2)c1` (configuration not stated): the inhibition is inactive: 3.31%.

Regarding `CP(=O)(Nc1cccc(Br)c1)Oc1ccccc1` (configuration not stated), the inhibition was inactive: -2.75%.

Consider `Cc1cc(C)cc(OP(C)(=O)Nc2ccccn2)c1` (configuration not stated), for which the inhibition was inactive: -1.02%.

As for `CCOC(=O)c1ccc(NP(C)(=O)Oc2cc(C)cc(C)c2)cc1` (configuration not stated), the inhibition was inactive: -0.47%.

Consider `Cc1cc(C)cc(OP(C)(=O)Nc2ccc(C)cc2C)c1` (configuration not stated), for which the inhibition was inactive: -3.59%.

For the compound `COc1ccccc1OP(C)(=O)Nc1cccc(Br)c1` (configuration not stated), the inhibition is inactive: -2.89%.

On to `CC1=NCCc2c1[nH]c1ccccc21.O=[N+]([O-])c1cc([N+](=O)[O-])c(O)c([N+](=O)[O-])c1`, for which the inhibition is inactive: 2.04%.

`O=C(O)c1cccc(Nc2c([N+](=O)[O-])cc([N+](=O)[O-])cc2[N+](=O)[O-])c1`: the inhibition was inactive: 11.9%.

Regarding `CP(=O)(Nc1ccccc1)Oc1ccc(F)cc1` (configuration not stated), the inhibition was inactive: -6.9%.

Regarding `CCCCCOc1ccc(NP(C)(=O)Oc2ccc(Cl)cc2Cl)cc1` (configuration not stated), the inhibition is inactive: -6.99%.

Regarding `O=[N+]([O-])c1cc([N+](=O)[O-])c(OC2CCCCC2O)c([N+](=O)[O-])c1` (configuration not stated), the inhibition was inactive: 4.35%.

As for `Cc1c([N+](=O)[O-])cc([N+](=O)[O-])c(Br)c1[N+](=O)[O-]`, the inhibition was inactive: -6.58%.

With `CCN(CC)CCCOC(=O)C(O)(c1ccccc1)C1CCCCC1` (configuration not stated), the inhibition is inactive: 0.63%.

Consider `CCOC(=O)c1ccc(NP(C)(=O)Oc2ccc(F)cc2)cc1` (configuration not stated), for which the inhibition was inactive: -1.08%.

`COc1ccc(OP(C)(=O)Nc2ccc(SC(F)(F)F)cc2)cc1` (configuration not stated): the inhibition was inactive: -0.25%.

As for `CCN(CC)CCCNc1ccccc1[N+](=O)[O-].O=[N+]([O-])c1cc([N+](=O)[O-])c(O)c([N+](=O)[O-])c1`, the inhibition is inactive: 9.87%.

`COc1ccc2c(c1O)-c1c(O)c(OC)cc3c1[C@H](C2)[N+](C)(C)CC3.O=[N+]([O-])c1cc([N+](=O)[O-])c([O-])c([N+](=O)[O-])c1[O-]`: the inhibition was inactive: -4.4%.

Take `O=C(OC1CN2CCC1CC2)c1ccc([N+](=O)[O-])cc1` (configuration not stated): the inhibition is inactive: -5.98%.

Turning to `O=C(OCCN1CCN(CCOCc2ccccc2)CC1)C(O)(c1ccccc1)c1ccccc1`, the inhibition was inactive: 2.73%.

`CP(=O)(Nc1ccccc1F)Oc1ccccc1` (configuration not stated): the inhibition was inactive: -8.9%.

Regarding `CC(C)c1ccc(OP(C)(=O)Nc2ccc(SC(F)(F)F)cc2)cc1` (configuration not stated), the inhibition is inactive: -13.3%.

In the case of `O=[N+]([O-])c1cc([N+](=O)[O-])c(Nc2ccc(Cl)cc2)c([N+](=O)[O-])c1`, the inhibition was inactive: -11.3%.

On to `Cc1ccccc1NP(C)(=O)Nc1ccccc1C`, for which the inhibition was inactive: -0.6%.

Turning to `O=[N+]([O-])c1cc([N+](=O)[O-])c(C(F)(F)F)c([N+](=O)[O-])c1O`, the inhibition is inactive: 1.8%.

For `CP(=O)(Nc1ccc2c(c1)OCCO2)Oc1ccccc1` (configuration not stated), the inhibition was inactive: 5.89%.

As for `CCOP(C)(=S)SCC(=O)NC(C)(CC)C(=O)O` (configuration not stated), the inhibition is inactive: 4.26%.

`CP(=O)(Nc1ccc(SC(F)(F)F)cc1)Oc1ccc(F)cc1` (configuration not stated): the inhibition was inactive: 2.74%.

Regarding `Cc1c(C(c2ccc3c(c2)OCO3)c2c(C)n(C)n(-c3ccccc3)c2=O)c(=O)n(-c2ccccc2)n1C.O=[N+]([O-])c1cc([N+](=O)[O-])c(O)c([N+](=O)[O-])c1`, the inhibition was inactive: -1.81%.

As to `O=[N+]([O-])c1ccc(OP2(=O)COCCO2)cc1` (configuration not stated), the inhibition was inactive: 10.1%.

Turning to `Cc1cc(-c2cccc3ccccc23)c(C)cn1.O=[N+]([O-])c1cc([N+](=O)[O-])c(O)c([N+](=O)[O-])c1`, the inhibition was inactive: 5.19%.

Consider `O=[N+]([O-])c1cc([N+](=O)[O-])c(NCC2CCS(=O)(=O)C2)c([N+](=O)[O-])c1` (configuration not stated), for which the inhibition was inactive: -4.87%.

For the compound `CN(C)CCOC(=O)C(O)(c1ccccc1)C1CCCCC1` (configuration not stated), the inhibition was inactive: 8.04%.

Regarding `COc1ccc(NP(C)(=O)Oc2ccccc2OC)cc1` (configuration not stated), the inhibition was inactive: -3.47%.

On to `COc1ccc(OP(C)(=O)Nc2cccc(Br)c2)cc1` (configuration not stated), for which the inhibition is inactive: 1.02%.

For `CCOC(=O)c1ccc(NP(C)(=O)Oc2ccc(Cl)cc2)cc1` (configuration not stated), the inhibition was inactive: -2.37%.

For the compound `CP(=O)(OC12CC3CC(CC(C3)C1)C2)OC12CC3CC(CC(C3)C1)C2`, the inhibition was inactive: -2.93%.

Turning to `CN(C)C(=O)c1c([N+](=O)[O-])cc([N+](=O)[O-])cc1[N+](=O)[O-]`, the inhibition is inactive: 0.37%.

With `CC(C)(C)c1ccc(OP(C)(=O)O)cc1`, the inhibition was inactive: 8.48%.

Regarding `COc1ccccc1OP(C)(=O)Nc1ccccc1Br` (configuration not stated), the inhibition is inactive: 0.51%.

Take `CP(=O)(Nc1ccc(Cl)cc1)Oc1ccc(F)cc1` (configuration not stated): the inhibition is inactive: 0.42%.

For `COc1ccccc1OP(C)(=O)Nc1c(C)n(C)n(-c2ccccc2)c1=O` (configuration not stated), the inhibition was inactive: -4.78%.

On to `O=C(OCCCN1CCCC1)C(O)(c1ccccc1)C1CCCCC1` (configuration not stated), for which the inhibition was inactive: -0.96%.

Consider `CP(=O)(Oc1ccccc1)N1CCOC1=O` (configuration not stated), for which the inhibition is inactive: -5.25%.

As for `CCc1ccc(OP(C)(=O)Nc2cccnc2)cc1` (configuration not stated), the inhibition was inactive: -9.9%.

Turning to `CCN(CC)CC(O)COC(=O)C(O)(c1ccccc1)C1CCCCC1` (configuration not stated), the inhibition is inactive: -6.3%.

As to `COc1ccc(OP(C)(=O)Nc2ccc(Br)cc2)cc1` (configuration not stated), the inhibition was inactive: -1.91%.

For the compound `CP(=O)(Nc1ccccn1)Oc1ccccc1` (configuration not stated), the inhibition is inactive: 4.98%.

As to `COc1ccccc1OP(C)(=O)Nc1ccc(C)cc1C` (configuration not stated), the inhibition was inactive: 0.34%.

For the compound `CCc1ccc(OP(C)(=O)O)cc1`, the inhibition was inactive: 2.87%.

For the compound `O=[N+]([O-])c1cc([N+](=O)[O-])c(Nc2ccccn2)c([N+](=O)[O-])c1`, the inhibition is inactive: -12%.

Consider `Cc1c(NP(C)(=O)Oc2ccc(C(C)C)cc2)c(=O)n(-c2ccccc2)n1C` (configuration not stated), for which the inhibition was inactive: 0.47%.

In the case of `COc1ccc(OP(C)(=O)Nc2ccccn2)cc1` (configuration not stated), the inhibition is inactive: -10.3%.

On to `CN(C)CCOC(=O)C(O)(c1ccccc1)C1CCCC1` (configuration not stated), for which the inhibition is inactive: 6.58%.

In the case of `COc1ccccc1OP(C)(=O)Nc1ccc(Br)cc1` (configuration not stated), the inhibition is inactive: 1.56%.

Take `CP(=O)(OCCOc1ccccc1)OCCOc1ccccc1`: the inhibition was inactive: 0.74%.

Regarding `CCCCCCCCCCCCCCCC1C[N+](C)(C)CCOP(C)(=O)O1` (configuration not stated), the inhibition is inactive: 9.81%.

Regarding `CP(=O)(Nc1ccc(Cl)cc1Cl)Oc1ccccc1` (configuration not stated), the inhibition is inactive: 3.38%.

Consider `COc1ccccc1OP(C)(=O)Nc1ccc(C)c(C)c1` (configuration not stated), for which the inhibition is inactive: 0.46%.

Consider `COc1ccc(OP(C)(=O)Nc2ccccc2Br)cc1` (configuration not stated), for which the inhibition was inactive: 5.18%.

In the case of `O=C1C(O)=C([N+](=O)[O-])C(=O)C(O)=C1[N+](=O)[O-]`, the inhibition was inactive: -8.44%.

In the case of `Cc1cc(C)cc(OP(C)(=O)Nc2cccc(C(F)(F)F)c2)c1` (configuration not stated), the inhibition is inactive: -5.64%.

Source of the values: PubChem BioAssay AID602281 (The Scripps Research Institute Molecular Screening Center, 2012).
